We go through 1 molecule from ChEMBL document CHEMBL5107966, “Cascade synthetic strategies opening access to medicinal-relevant aliphatic 3- and 4-membered N-heterocyclic scaffolds” (Eur J Med Chem, 2022).

pIC50: −log10 of the molar value.

This assay has as its system HCT-116. The experiment in a line: Cytotoxicity against human HCT-116 cells assessed as cell viability incubated for 24 hrs by MTT assay.

On to `CCOP(=O)(OCC)C1CN1Cc1ccccc1` (stereo unspecified), for which the pIC50 was 4.89.
